Our source for the IC50 values is EP0839146B1, “PIPERAZINE DERIVATIVES AND THEIR USE AS 5-HT1A ANTAGONISTS” (AMERICAN HOME PRODUCTS CORPORATION, priority 1995, dated 1997).

The test deals with α1 receptors. The test is described as follows: α1 binding affinity (procedure of Marrow et al). Particulars: read-out: α1 binding IC50.

For orientation: IC50 means the concentration that inhibits the measured activity by half. As for `COc1ccccc1N1CCN(CCN(C(=O)C2CCCCC2)c2ccccn2)CC1`, the IC50 is 0.23 µM.
